Legend:
Nociceptin receptor = Nociceptin receptor (Homo sapiens, UniProt P41146); experiment: ChEBML_144661
Mu-type opioid receptor = Mu-type opioid receptor (Homo sapiens, UniProt P35372); experiment: ChEBML_148227

The chains behind the UniProt entries cited, without tags or fusion partners. Where a name states a change or a piece, a line headed by the entry shows the natural chain unless it says otherwise.
UniProt P41146: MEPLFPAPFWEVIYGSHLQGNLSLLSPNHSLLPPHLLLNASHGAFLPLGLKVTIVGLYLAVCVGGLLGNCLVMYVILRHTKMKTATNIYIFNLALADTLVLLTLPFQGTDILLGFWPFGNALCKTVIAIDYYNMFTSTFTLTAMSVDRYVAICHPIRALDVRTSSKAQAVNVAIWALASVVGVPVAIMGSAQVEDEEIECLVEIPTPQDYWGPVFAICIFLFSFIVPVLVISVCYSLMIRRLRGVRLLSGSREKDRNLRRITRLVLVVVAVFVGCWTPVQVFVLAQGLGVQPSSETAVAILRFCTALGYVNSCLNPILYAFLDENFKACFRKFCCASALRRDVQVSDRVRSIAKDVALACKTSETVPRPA
UniProt P35372, whole entry, looked up: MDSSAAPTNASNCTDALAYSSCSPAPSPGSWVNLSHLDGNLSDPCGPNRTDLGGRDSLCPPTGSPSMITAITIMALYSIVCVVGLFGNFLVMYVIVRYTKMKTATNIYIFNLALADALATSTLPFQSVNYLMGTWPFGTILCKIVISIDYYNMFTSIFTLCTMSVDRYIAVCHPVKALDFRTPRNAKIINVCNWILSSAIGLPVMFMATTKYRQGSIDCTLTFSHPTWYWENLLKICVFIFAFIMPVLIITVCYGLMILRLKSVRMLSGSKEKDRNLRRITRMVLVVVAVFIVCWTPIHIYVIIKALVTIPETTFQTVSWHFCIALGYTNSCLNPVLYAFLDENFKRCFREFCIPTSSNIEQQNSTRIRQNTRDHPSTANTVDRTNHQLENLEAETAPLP

SMILES	Ki (Nociceptin receptor) [nM]	Ki (Mu-type opioid receptor) [nM]
CCN1C(=O)N(C2CCN(C3CCCCCCC3)CC2)[C@@H]2CCCC[C@H]21	111	909
CCN1C(=O)N(C2CCN(C3CCC4CCCCC4C3)CC2)[C@@H]2CCCC[C@H]21 (stereo partly specified)	184	279
O=C1N[C@@H]2CCCC[C@H]2N1C1CCN(Cc2ccc3ccccc3c2)CC1	1260	1240

From BindingDB's records for 14980696
